The chains behind the UniProt entries cited, without tags or fusion partners. Residues count along the entry.
UniProt H0W0Z7, 33-559: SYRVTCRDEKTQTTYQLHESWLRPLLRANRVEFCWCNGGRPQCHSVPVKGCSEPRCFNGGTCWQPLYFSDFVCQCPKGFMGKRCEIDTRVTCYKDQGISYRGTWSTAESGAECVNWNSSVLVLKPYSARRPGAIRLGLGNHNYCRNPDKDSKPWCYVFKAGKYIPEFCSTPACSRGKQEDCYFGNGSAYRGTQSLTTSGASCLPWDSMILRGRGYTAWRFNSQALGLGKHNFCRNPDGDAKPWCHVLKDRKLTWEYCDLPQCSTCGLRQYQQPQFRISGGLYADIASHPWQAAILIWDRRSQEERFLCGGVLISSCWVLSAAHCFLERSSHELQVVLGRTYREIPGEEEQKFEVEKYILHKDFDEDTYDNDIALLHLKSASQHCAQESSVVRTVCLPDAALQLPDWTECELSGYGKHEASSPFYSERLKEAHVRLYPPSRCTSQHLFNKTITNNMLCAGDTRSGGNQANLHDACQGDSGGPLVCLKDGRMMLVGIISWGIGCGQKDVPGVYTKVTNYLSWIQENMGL

In US4780412A, “Fibrinolytic enzymes produced from established non-cancerous cell lines” (priority 1982, dated 1988):

Molecular target: T1, GPK derived enzyme, partially purified (fibrinolytic enzyme / plasminogen activator from cell line GPK, CNCMI-222) (Cavia porcellus, UniProt H0W0Z7)
T1 construct: zinc chelate agarose, partially purified from culture supernatant
Assay: Amidolytic activity on chromogenic substrates (release of p-nitroaniline at 405 nm)
Type: biochemical
Procedure: The amidolytic activity of the GPK derived enzyme was determined using various chromogenic substrates. […] Z

| Vmax (pH 8.8, ionic strength I 0.0037, 0.05M Tris-HCl, 37° C.) [M/min/M enzyme] | SMILES | Vmax (pH 9.0 (line above), ionic strength I 0.0035, substrate concentration by weight) [M/min/M enzyme] |
| --- | --- | --- |
|  | CC(C)[C@H](NC(=O)c1ccccc1)C(=O)NCC(=O)N[C@@H](CCCNC(=N)N)C(=O)Nc1ccc([N+](=O)[O-])cc1 [Benzoyl-Val--Gly--Arg--pNA.HCl] | 1.387 |
| 5.36 | N=C(N)NCCC[C@H](NC(=O)[C@H](CCC(=O)O)NC(=O)[C@@H](N)CCC(=O)O)C(=O)Nc1ccc([N+](=O)[O-])cc1 [Glu--Glu--Arg--pNA.HCl] |  |

Structures can show the parent of a compound that is named as a salt.
